Results on 29 molecules are retold here after PubChem BioAssay AID602162 (NMMLSC, 2011).

The chains behind the UniProt entries cited, without tags or fusion partners. Where a name states a change or a piece, a line headed by the entry shows the natural chain unless it says otherwise.
UniProt Q9NP58: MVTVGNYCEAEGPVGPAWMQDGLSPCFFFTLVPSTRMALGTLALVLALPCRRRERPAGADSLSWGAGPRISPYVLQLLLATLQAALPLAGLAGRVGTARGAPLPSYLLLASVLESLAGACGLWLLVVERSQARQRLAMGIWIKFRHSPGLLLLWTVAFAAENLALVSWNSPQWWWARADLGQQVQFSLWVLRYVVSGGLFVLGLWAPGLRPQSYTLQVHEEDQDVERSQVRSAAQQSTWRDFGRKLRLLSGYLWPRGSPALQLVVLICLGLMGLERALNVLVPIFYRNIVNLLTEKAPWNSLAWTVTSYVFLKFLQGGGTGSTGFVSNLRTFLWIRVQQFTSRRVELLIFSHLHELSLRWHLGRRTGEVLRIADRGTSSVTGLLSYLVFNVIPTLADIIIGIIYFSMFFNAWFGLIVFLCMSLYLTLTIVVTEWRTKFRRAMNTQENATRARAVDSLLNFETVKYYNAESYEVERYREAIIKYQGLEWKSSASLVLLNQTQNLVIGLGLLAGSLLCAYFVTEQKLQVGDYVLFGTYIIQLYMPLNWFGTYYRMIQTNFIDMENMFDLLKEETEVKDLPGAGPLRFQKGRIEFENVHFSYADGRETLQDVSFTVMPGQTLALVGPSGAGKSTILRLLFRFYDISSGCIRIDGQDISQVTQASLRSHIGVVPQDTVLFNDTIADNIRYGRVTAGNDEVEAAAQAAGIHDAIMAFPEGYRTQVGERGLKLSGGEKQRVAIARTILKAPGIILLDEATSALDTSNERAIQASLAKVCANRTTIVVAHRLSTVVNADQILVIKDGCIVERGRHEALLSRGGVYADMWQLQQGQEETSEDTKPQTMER

Structures are written as SMILES. The entries are a selection whose mix differs from that of the whole data set. Active and inactive are the calls of the source.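 The calls were made as follows: active = fluorescence ratio to DMSO below 75%, the collection mean minus 3 SD; inconclusive = too few cells collected in the well; inactive = the rest.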

The target in this assay is ATP-binding cassette sub-family B member 6 (Homo sapiens) (UniProt Q9NP58). Put plainly: blockers of ABCB6-driven porphyrin uptake – K562-ABCB6 cells, flow cytometry, MLPCN library, primary screen (AID 602162).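 Also: signal is porphyrin accumulated inside mitochondria; 100% equals median channel fluorescence of DMSO control wells; lower ratio means ABCB6 inhibition with less porphyrin fluorescence.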 The settings on record: K562-ABCB6 porphyrin accumulation, 1 h, at 10 µM, active compounds read low. On the technique in general: A flow cytometer gives signals particle by particle.
For `Cc1ccc(OP(=O)(Nc2nccs2)Oc2ccc(C)cc2)cc1`, the fluorescence ratio to DMSO is inactive: 90%.
The same measure for `COc1ccccc1OP(=O)(Nc1ccc(C)cn1)Oc1ccccc1OC`: inactive: 95%.
Then `CN1CCCC(OC(=O)C(c2ccccc2)c2ccccc2)C1` (centres undefined), with inactive: 101%; and `Clc1ccc(Cl)c(NC2=NCC(CBr)S2)c1` (centres undefined), with inactive: 102%; and `Nc1cc(N)c2nonc2c1[N+](=O)[O-]`, with inactive: 99%.
`CC(C)CC(=O)NC(Sc1ccc(Cl)cc1)C(Cl)(Cl)Cl` (centres undefined): the fluorescence ratio to DMSO was inactive: 99%.
Take `O=C(NC(Sc1ccncn1)C(Cl)(Cl)Cl)c1ccccc1` (centres undefined): the fluorescence ratio to DMSO is inactive: 98%.
As to `Oc1ccccc1CNc1ccccn1`, the fluorescence ratio to DMSO is inactive: 98%.
Take `O=[N+]([O-])C1C(O)C(O)C([N+](=O)[O-])C(O)C1O` (centres undefined): the fluorescence ratio to DMSO was inactive: 93%.
Then `COc1ccc(C2=NCC(CBr)S2)cc1` (centres undefined), with inactive: 102%; and `CC(=O)N1C2C3N(C(C)=O)C1C1N(C(C)=O)C(C(N1C(C)=O)N3C(C)=O)N2C(C)=O`, with inactive: 110%.
Then `O=[N+]([O-])c1cccc2n[nH]nc12`, with inactive: 86%; and `O=[N+]([O-])c1cc([N+](=O)[O-])c(CCNc2ccccc2)c([N+](=O)[O-])c1`, with inactive: 119%; and `CCc1nc2c(n1)c1c(non1O)c1c2no[n+]1[O-]`, with inactive: 108%.
Then `Cc1ccc(NP(=O)(Oc2ccccc2)Oc2ccccc2)nc1`, with inactive: 95%; and `C[N+]1=C2C=CC=CC=C2SC12C([N+](=O)[O-])=CC([N+](=O)[O-])=C[C-]2[N+](=O)[O-]` (centres undefined), with inactive: 97%.
`Nc1ccc([As](=O)(O)c2ccc(N)cc2)cc1`: the fluorescence ratio to DMSO was inactive: 85%.
Take `CCN(/C(=N/P(=O)(N1CCOCC1)N1CCOCC1)N1CCOCC1)c1ccc(OC)cc1`: the fluorescence ratio to DMSO is inactive: 101%.
Take `CN(C)C(=O)OCCc1n(C)cc[n+]1C`: the fluorescence ratio to DMSO was inactive: 102%.
Consider `CC(C)c1nc(Nc2ccccc2)n(P(=O)(N(C)C)N(C)C)n1`, for which the fluorescence ratio to DMSO was inactive: 99%.
Take `CC(C)=N/N=C(\N)N[N+](=O)[O-]`: the fluorescence ratio to DMSO was inactive: 97%.
Then `CC1CCN(C(=O)Oc2c(Cl)cc(Cl)c3cccnc23)CC1`, with inactive: 108%; and `c1cc(-c2nn[nH]n2)ccc1-c1nn[nH]n1`, with inactive: 95%; and `O=P1(N(CCCl)CCCl)OCCCS1` (centres undefined), with inactive: 94%.
Then `O=C(Nc1cc([As](=O)(O)O)ccc1O)c1ccccc1`, with inactive: 98%.
On to `CC(C)(C)C(=O)NC(Sc1ccncn1)C(Cl)(Cl)Cl` (centres undefined), for which the fluorescence ratio to DMSO is inactive: 100%.
As for `O=[N+]([O-])c1ncn(CCn2ncnc2[N+](=O)[O-])n1`, the fluorescence ratio to DMSO is inactive: 98%.
The same measure for `COC(=O)C1(C)COP(=O)(Nc2ccccc2)OC1` (centres undefined): inactive: 97%; for `O=[N+]([O-])c1cccc(NC2=NCC(CBr)S2)c1` (centres undefined): inactive: 92%.
